This series is described as follows: Stability test (accelerated experiment, sealed PE/aluminum foil bags, 40±2° C., humidity 75±5%).

In the case of “tenvermectin B [crystal form I of tenvermectin B]”, the “stability on storage (in words)” value (after a storage of 6 months, 40±2° C., humidity 75±5%) was “basically stable”. The “stability (general statement, in words)” value (comparison of amorphous and crystal form I) was “much better than that of amorphous tenvermectin B”. For the same substance, the “degradation in the stability experiment” value (stability experiment) is “no degradation”.

The values are drawn from patent US11912717B2, “Crystal form of tenvermectin B, preparation method therefor, and use thereof” (Shenzhen Tenver Biopharm Co., Ltd., priority 2018, dated 2024).
